# Results from patent US11214594B2, “Antimicrobial peptide having synergistic antibacterial effect with antibiotics on multidrug resistant bacteria, and use thereof” (priority 2016, dated 2022).
# How the values were obtained:
# E. coli = type: cell-based, Escherichia coli; conditions: agent alone, MH medium, 37° C., 16 hours
# Procedure: (§1) For the antibacterial activity, a minimal inhibitory concentration (MIC) of a peptide in which fungus bodies were not split in an MH medium with sufficient nutrients was measured.
# (§2) Specifically, the strains described in the following [Table 2] were purchased and diluted with an MH medium such that the number of bacteria was 2×10^6 colony-forming units (CFUs), 100 μl of each of the diluted strains was aliquoted into a 96-well microtiter plate, and then 100 μl of a peptide solution diluted with the MH medium (solution diluted stepwise at 2: 1) was added to each well.
# P. aeruginosa = type: cell-based, Pseudomonas aeruginosa; conditions: agent alone
# Procedure: as §1, §2
# S. typhimurium = type: cell-based, Salmonella typhimurium; conditions: agent alone
# Procedure: as §1, §2
# B. subtilis = type: cell-based, Bacillus subtilis; conditions: agent alone
# Procedure: as §1, §2
# S. aureus = type: cell-based, Staphylococcus aureus; conditions: agent alone
# Procedure: as §1, §2
smiles,measurement,setting,value
"CC[C@H](C)[C@H](NC(=O)CN)C(=O)NCC(=O)N[C@@H](C)C(=O)N[C@H](C(=O)N[C@@H](CC(C)C)C(=O)N[C@@H](CCCCN)C(=O)N[C@H](C(=O)N[C@@H](CC(C)C)C(=O)N[C@H](C(=O)N[C@H](C(=O)NCC(=O)N[C@@H](CC(C)C)C(=O)N1CCC[C@H]1C(=O)N[C@@H](C)C(=O)N[C@@H](CC(C)C)C(=O)N[C@H](C(=O)N[C@@H](CO)C(=O)N[C@@H](Cc1c[nH]c2ccccc12)C(=O)N[C@H](C(=O)N[C@@H](CCCCN)C(=O)N[C@@H](CCCNC(=N)N)C(=O)N[C@@H](CCCCN)C(=O)N[C@@H](CCCNC(=N)N)C(=O)N[C@@H](CCC(N)=O)C(=O)N[C@@H](CCC(N)=O)C(N)=O)[C@@H](C)CC)[C@@H](C)CC)[C@@H](C)O)[C@@H](C)O)C(C)C)C(C)C [Melittin, reference compound]",Minimal inhibitory concentration MIC,E. coli,16 µg/mL
same,Minimal inhibitory concentration MIC,P. aeruginosa,8 µg/mL
same,Minimal inhibitory concentration MIC,S. typhimurium,32 µg/mL
same,Minimal inhibitory concentration MIC,B. subtilis,32 µg/mL
same,Minimal inhibitory concentration MIC,S. aureus,8 µg/mL
